# Binding of CDR-mutated scFvs to a peptide of the spike HR2 region

The target is the same throughout: PDVDLGDISGINAS, from the HR2 region of SARS-CoV-2 spike.

Ab-95 is the parent antibody, in scFv form: VH, then the linker GGGGSGGGGSGGGGS, then VL. The heavy chain is unchanged in all variants.
VH: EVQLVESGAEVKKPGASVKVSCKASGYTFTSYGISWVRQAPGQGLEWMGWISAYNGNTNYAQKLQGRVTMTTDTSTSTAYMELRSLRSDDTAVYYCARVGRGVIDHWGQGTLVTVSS
VL: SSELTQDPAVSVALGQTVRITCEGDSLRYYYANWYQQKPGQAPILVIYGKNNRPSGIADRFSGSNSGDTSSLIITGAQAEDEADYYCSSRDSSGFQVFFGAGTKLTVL

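The starting antibody came from a phage panning campaign against this peptide. The library (AAYL52) carries one to three amino acid substitutions per variant, with no insertions or deletions. The scFvs were displayed on barcoded MATa yeast, the peptide on MATalpha yeast. Binding brings cells together so that they mate, and sequencing counts the barcode pairs among the diploids. Scores were corrected for input abundance and mapped to Kd with protein pairs of known affinity run in the same pool. There are three technical replicates.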

Substitutions are numbered in sequence along the VL above, starting at 1 (not Kabat).
The read-out is the apparent dissociation constant on a log10 scale (nM): the lower, the stronger.
A pair that was not seen in that replicate is written "nd"; this usually means weak binding, but a binder can also be missed.
For reference, the parent read 2.31 as the reference entry and 2.25 as a member of this library.
Nonspecific signal, from three strains lacking the peptide, appeared in 28% of pairings of library AAYL52, centred on 3.91 (5% of these signals below 2.90); values are not corrected for it. Also given: how often the same scFv was detected with the empty control strains, with their mean in brackets.

| # | changes | replicates, log10 nM | empty controls |
|---|---|---|---|
| 1 | Y31L/S88K/D91Y | 3.64 nd nd | 3/9 (3.34) |
| 2 | N33G/S93P/G94F | 5.24 4.73 4.23 | 6/9 (4.17) |
| 3 | N52W/S92V/Q96N | 3.55 3.67 4.63 | 2/9 (3.82) |
| 4 | K50E/N52P/S55D | 3.62 2.98 3.17 | 3/9 (4.02) |
| 5 | D25K/R90S/F95V | 3.03 nd nd | 2/9 (3.25) |
| 6 | R28D/P54E/S89Y | nd 4.55 3.68 | 1/9 (3.46) |
| 7 | G24F/G49T/G94L | 4.61 nd nd | 2/9 (4.11) |
| 8 | S26D/K50V/R53L | 4.14 nd nd | 4/9 (3.90) |
| 9 | E23C/R90W/F95Q | nd nd nd | 0/9 |
| 10 | N51S/P54T/S88R | nd nd 4.28 | 2/9 (3.96) |
| 11 | D91R/S92D/V97D | nd nd nd | 2/9 (2.99) |
| 12 | S26N/R90G | nd 3.00 nd | 0/9 |
| 13 | P54M | 1.89 2.59 2.02 | 3/9 (4.04) |
| 14 | G24W/D25S/G94S | 3.34 2.82 nd | 1/9 (3.38) |
| 15 | G24I/N33E/G94W | 5.78 4.01 nd | 3/9 (4.67) |
| 16 | Y29R/F95C/F98M | nd nd nd | 0/9 |
| 17 | G24F/A32L/S92W | 4.22 3.50 nd | 3/9 (3.61) |
| 18 | G24D/S88L/G94N | 3.60 nd nd | 4/9 (3.81) |
| 19 | Y30H/N52Y/D91G | 2.77 2.49 2.13 | 5/9 (4.38) |
| 20 | N33R/S88E/S89K | nd 3.42 3.81 | 3/9 (3.85) |
| 21 | Y29M/S93I/F98I | 3.19 3.30 nd | 4/9 (3.78) |
| 22 | L27K/Y30S/S55N | 2.80 2.67 2.94 | 5/9 (3.91) |
| 23 | Y31E/R90T/V97M | 3.43 nd nd | 3/9 (4.61) |
| 24 | S55Y/R90F/F95V | 2.27 2.12 1.95 | 2/9 (3.87) |
| 25 | R90Q/S92D/Q96W | 3.27 2.75 2.64 | 2/9 (3.79) |
| 26 | L27Q/Y31D/P54V | 2.75 2.56 2.78 | 3/9 (4.60) |
| 27 | D25T/R53M/D91K | 3.87 3.11 3.99 | 3/9 (4.29) |
| 28 | N51P/G94K/F98L | nd nd nd | 1/9 (3.91) |
| 29 | A32E/N52Q/F98A | nd nd nd | 0/9 |
| 30 | K50W/S89Q/Q96G | nd nd nd | 2/9 (4.53) |
| 31 | G24I/A32N/N51I | 3.04 nd nd | 2/9 (4.64) |
| 32 | Y30H/G49M/F98H | 2.12 1.90 1.74 | 3/9 (3.48) |
| 33 | N33K/S55V/S88T | nd nd nd | 3/9 (3.70) |
| 34 | S55H/F98N | 3.74 3.28 nd | 0/9 |
| 35 | Y31W/N52Y/S93G | 3.27 3.81 2.40 | 5/9 (3.77) |
| 36 | L27K/Y31R/V97Y | nd 3.83 3.71 | 0/9 |

The last 4 entries again:

changes,"replicates, log10 nM",empty controls
N33K/S55V/S88T,nd nd nd,3/9 (3.70)
S55H/F98N,3.74 3.28 nd,0/9
Y31W/N52Y/S93G,3.27 3.81 2.40,5/9 (3.77)
L27K/Y31R/V97Y,nd 3.83 3.71,0/9

The measurements come from Engelhart et al. 2022 (doi:10.1038/s41597-022-01779-4) through the FLAb antibody collection.